In the experiment the target is OPRK (Homo sapiens, UniProt P41145). The experiment in a line: [35S]GTPγS binding assay, CHO-K1 membranes. The format is biochemical.

Protein sequences, listed by entry. Tags and fused reporters are not part of them.
UniProt P41145, whole entry: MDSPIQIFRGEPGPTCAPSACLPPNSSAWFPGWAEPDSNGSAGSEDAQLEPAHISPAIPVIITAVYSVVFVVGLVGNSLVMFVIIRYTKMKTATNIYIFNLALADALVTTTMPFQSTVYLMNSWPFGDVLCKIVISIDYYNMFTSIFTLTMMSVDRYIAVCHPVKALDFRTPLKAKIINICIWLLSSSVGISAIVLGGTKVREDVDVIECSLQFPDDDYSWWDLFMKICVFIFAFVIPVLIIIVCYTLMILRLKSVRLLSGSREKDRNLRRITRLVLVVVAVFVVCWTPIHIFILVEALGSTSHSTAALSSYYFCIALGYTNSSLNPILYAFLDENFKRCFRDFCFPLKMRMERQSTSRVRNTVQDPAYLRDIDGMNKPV

This is an account of results in patent publication US20150258108A1 (priority 2014, published 2015).

Structures are written as SMILES. Values joined by “and” are separate entries in the source; they are usually repeats but may differ in a detail not shown here. Identical values can stand only once. Like-named read-outs stand apart in the source and are kept apart here.

For `COCC[C@H]1C[C@H]2CN3CCc4c([nH]c5ccccc45)[C@](C(=O)OC)(C2)[C@H]13`, the Ke was 2.9 ± 0.7 µM and 4.3 ± 1.9 µM. In addition, the e-coupling (OPRK, activation, pKi-pEC50) was 0.94 ~. Where the note is “OPRK, against U69,593”, the Ke was 4.5 ± 1.4 µM. Under “OPRK, against agonist Dynorphin A”, this molecule had a Ke of 2.8 ± 0.6 µM. Where the note is “OPRK, against agonist U69,593”, this molecule registered a Ke of 4.5 ± 1.4 µM. In addition, the Ke (OPRK, inhibitory component, agonist not named in the row) was 4.556 µM. Where the note is “OPRK, inhibitory component, pKi-pKe”, this molecule came in with an e-coupling of 0.39.
